# Reference: PubChem BioAssay AID652025 (National Center for Advancing Translational Sciences (NCATS), 2013)
# Only a part is listed here, and it is no random draw. Some salts or complexes appear as unconnected parts, following the source record. Activity calls are given as the source filed them. Rule as the data show it: active = activation above about 50%; inconclusive = mostly about 30% to 49%; inactive = weaker than that.
# Assay: qHTS of IL-2 Activators; also: 0% is about no effect
# Conditions: IL-2 activation reporter assay, cell-based qHTS; stronger effect = higher value; in transgenic mouse T cells; stimulated with anti-CD3/CD4/CD28 beads
# Excerpt: The adaptive immune response against any infectious agent begins with the activation of an antigen specific T cell. This relatively rare and inert ("naive") T cell undergoes a massive proliferative expansion and differentiation process to generate sufficient number of potent pathogen-specific effector T cells. The effector T cells fight the infection by making cytokines and helping other cells to become fully armed as well. If any naive T cell has antigen receptors (TCRs) that can be activated by self peptides, then a variety of regulatory mechanisms kick in to prevent this cell from performing to its full potential. These processes collectively constitute the phenomenon of immunological tolerance and their failure leads to autoimmunity. One arm of tolerance involves generation of biochemical negative feedback downstream of the TCR (tuning). This is especially relevant to self antigens present in the body over long periods of time (chronic), which form the bulk of our proteome. The negative feedback serves to tune the TCR signaling, such that the ambient antigenic stimulation is nullified intracellularly. Unfortunately, this critical machinery serves as a target for chronic viral, bacterial and parasitic infections (as well as tumors), which can evade a robust immune response, simply by allowing T cells to tune down their signaling to pathogen or malignancy derived antigens. As such, disrupting the tuning in such cases would allow the tolerant T cell to function again and deliver a robust effector response.
# If a therapeutic can restore responsiveness to the tuned down T cell, even for a short time, they could combat the pathogen without any additional immunization. To that end, we have developed a sensitive HTS T cell based assay based on IL-2. This assay will be screened against the Molecular Libraries Small Molecule Repository (MLSMR) to find small molecules that could elicit this response.
# NIH Chemical Genomics Center [NCGC]
# NIH Molecular Libraries Probe Centers Network [MLPCN]
# Assay Submitter (PI): Ron Schwartz, NIAID
# 4 microL (750 cells/well) of unstimulated transgenic mouse T cells (columns 1-3,5-48) are dispensed into Aurora LoBase, black clear-bottom 1536-well assay plates; column 4 receives an identical concentration of transgenic memory T cells as a non-tolerant control. Compounds are then transferred via Kalypsys pin tool equipped with 1536-pin array (10 nL slotted pins, V&P Scientific, San Diego, CA). Following addition of compound and a 60 minute incubation, 1 microL of bead stimulation solution ((0.04 micron Fluospheres (Life technologies, CA) coated with 10ug/ml each anti-CD3 and anti-CD4 (clones 2C11 and GK1.5, BD Biosciences, CA) and mixed with 1ug/ml anti-CD28 (clone PV-1, BD biosciences, CA)). columns 2-48) is added to stimulate the IL-2 response pathway; media is instead added to column 1 as an unstimulated control, while PMA/ionomycin (Sigma Aldrich, MO) is added to column 3 as a control for IL-2 tolerance bypass. The plates are then incubated at 37 degrees C for 18 hours. EGFP and DsRed signal are then detected using an Acumen eX3 Explorer fluorescent plate cytometer. All cells are dispensed in cell media containing EHAA (Quality Biologicals, MD), RPMI (Quality Biologicals, MD), Glutamine (Life Technologies, CA), Penicillin/Streptomycin (Quality Biologicals, MD), 2-ME (Sigma Aldrich, MO) and 10% FBS (Gemini Bioproducts, CA) .
row,Structure (SMILES),activation
1,CSc1ccccc1C(=O)NCC1(N2CCCCC2)CCCCC1,inactive: 0.921%
2,Cc1cccc(NC2(C#N)CCN(Cc3ccccc3)CC2)c1,inactive: 0.526%
3,COc1ccc(C(=O)NCC2(N3CCCCC3)CCCCC2)cc1,inactive: 2.5%
4,CC(C)(C)OC(=O)N1CCC(N(C(=O)c2ccccc2)c2ccc(F)cc2)CC1,inactive: 0.905%
5,COc1ccc(C(=O)NCC2(N3CCCCC3)CCCCC2)c(OC)c1OC,inactive: -4.1%
6,CCC(c1nnnn1C1CCCC1)N1CCC(n2c(=O)[nH]c3ccccc32)CC1 (stereo not drawn),inactive: -0.0145%
7,O=C(NCC1(N2CCCCC2)CCCCC1)c1ccc(=O)[nH]c1,inactive: -2.44%
8,O=C(NCC1(N2CCCCC2)CCCCC1)c1cccs1,inactive: 0.059%
9,CCCCn1nnnc1C(CC)N1CCC(n2c(=O)[nH]c3ccccc32)CC1 (stereo not drawn),inactive: 0.353%
10,CCCCn1nnnc1C(c1cccs1)N1CCC(n2c(=O)[nH]c3ccccc32)CC1 (stereo not drawn),inactive: -0.376%
11,N#CC1(Nc2ccccc2)CCN(Cc2ccccc2)CC1,inactive: -0.5%
12,O=C(NCC1(N2CCCCC2)CCCCC1)c1ccc(Cl)s1,inactive: -3.87%
13,O=C(OC1CN2CCC1CC2)C1c2ccccc2Oc2ccccc21 (stereo not drawn),inactive: -0.641%
14,O=c1[nH]c2ccccc2n1C1CCN(C(c2cc3ccccc3o2)c2nnnn2C2CCCCC2)CC1 (stereo not drawn),inactive: 0.987%
15,COc1ccc(Cl)cc1C(=O)NCC1(N2CCOCC2)CCCCC1,inactive: -3.77%
16,O=C1C(O)=C([N+](=O)[O-])C(=O)C(O)=C1[N+](=O)[O-],inactive: 1.66%
17,CCOC(=O)N1CCC(Nc2ccc(OC)cc2)CC1,inactive: 3.05%
18,CCCCn1nnnc1C(c1ccc(OC)cc1)N1CCC(n2c(=O)[nH]c3ccccc32)CC1 (stereo not drawn),inactive: -0.111%
19,O=C(NCC1(N2CCCCC2)CCCCC1)c1ccc(Cl)nc1,inactive: 0.896%
20,O=c1[nH]c2ccccc2n1C1CCN(C(c2ccccc2OC(F)(F)F)c2nnnn2C2CCCCC2)CC1 (stereo not drawn),inactive: -0.687%
21,Cc1cc(C)cc(N(C(=O)c2ccccc2)C2CCN(C(=O)OC(C)(C)C)CC2)c1,inactive: -0.598%
22,O=C(NCC1(N2CCOCC2)CCCCC1)c1cc2ccccc2o1,inactive: -0.266%

row,Structure (SMILES),activation
1,O=P1(N(CCCl)CCCl)SCCCS1,inactive: 0.179%
2,CCCCn1nnnc1C(c1cc2ccccc2o1)N1CCC(n2c(=O)[nH]c3ccccc32)CC1 (stereo not drawn),inactive: 0.318%
3,CCCCOc1ccc(C(=O)NCC2(N3CCOCC3)CCCCC2)cc1,inactive: 0.12%
4,O=C(NCC1(N2CCCCC2)CCCCC1)c1ccc(F)cc1,inactive: -0.424%
5,COc1ccc(NC2CCN(CCc3ccccc3)CC2)c(OC)c1,inactive: -1.34%
6,CCOC(=O)N1CCC(Nc2ccc(F)cc2)CC1,inactive: 0.119%
7,CC(C)(C)n1nnnc1C(c1ccccc1)N1CCC(n2c(=O)[nH]c3ccccc32)CC1 (stereo not drawn),inactive: 0.515%
8,O=C1CCN(Cc2ccccc2)CC1,inactive: -0.0607%
9,CCOc1ccc(C)cc1CN(CCCl)CCCl,inactive: -0.908%
10,CCOC(=O)N1CCC(Nc2cccc(C)c2)CC1,inactive: 2.19%
11,COc1cc(C(=O)NCC2(N(C)C)CCCCC2)ccc1OC(F)F,inactive: 0.695%
12,O=c1[nH]c2ccccc2n1C1CCN(C(c2cccc3ccccc23)c2nnnn2C2CCCC2)CC1 (stereo not drawn),inactive: -0.655%
13,O=c1[nH]c2ccccc2n1C1CCN(C(c2ccccc2)c2nnnn2C2CCCCC2)CC1 (stereo not drawn),inactive: 0.884%
14,CCN1CCC(Nc2ccc(Cl)cc2)CC1,inactive: 1.22%
15,O=c1[nH]c2ccccc2n1C1CCN(C(c2ccccc2OC(F)(F)F)c2nnnn2C2CCCC2)CC1 (stereo not drawn),inactive: -0.27%
16,N#CC1(Nc2ccccc2)CCN(CCc2ccccc2)CC1,inactive: -0.0177%
17,CSc1ccc(C(=O)NCC2(N3CCOCC3)CCCCC2)cc1,inactive: -1.37%
18,O=C(NCC1(N2CCCCC2)CCCCC1)c1cccc([N+](=O)[O-])c1,inactive: -0.0293%
19,CC(C)(C)n1nnnc1C(c1ccccc1OC(F)(F)F)N1CCC(n2c(=O)[nH]c3ccccc32)CC1 (stereo not drawn),inactive: -0.382%
20,O=C(NCC1(N2CCCCC2)CCCCC1)c1ccc(OC(F)F)cc1,inactive: -0.731%
21,COc1cc(C(=O)NCC2(N3CCCCC3)CCCCC2)ccc1OC(F)F,inactive: -3.24%
22,O=C(NCC1(N2CCOCC2)CCCCC1)c1cc(=O)[nH]c2ccccc12,inactive: 0.24%

row,Structure (SMILES),activation
1,CN1CCN(CCOC(=O)C(O)(c2ccccc2)c2ccccc2)CC1,inactive: 0.123%
2,CC(C)c1ccc(C(=O)NCC2(N3CCOCC3)CCCCC2)cc1,inactive: -4.98%
3,COc1ccc(NC2CCN(C(=O)OC(C)(C)C)CC2)cc1,inactive: 1.87%
4,CCCCn1nnnc1C(c1cccc2ccccc12)N1CCC(n2c(=O)[nH]c3ccccc32)CC1 (stereo not drawn),inactive: 0.324%
5,O=[N+]([O-])c1cc([N+](=O)[O-])c(NCC2CCS(=O)(=O)C2)c([N+](=O)[O-])c1 (stereo not drawn),inactive: -5.52%
6,O=C(NCC1(N2CCCCC2)CCCCC1)c1cccc(C(F)(F)F)c1,inactive: -0.513%
7,COc1cc(OC)c(C(=O)NCC2(N(C)C)CCCCC2)cc1OC,inactive: 2.82%
8,O=C(NCC1(N2CCOCC2)CCCCC1)c1cc(F)c(F)cc1Cl,inactive: 0.732%
9,CCC(c1nnnn1C(C)(C)C)N1CCC(n2c(=O)[nH]c3ccccc32)CC1 (stereo not drawn),inactive: 1.3%
10,CCN(CC)CCCNc1ccccc1[N+](=O)[O-].O=[N+]([O-])c1cc([N+](=O)[O-])c(O)c([N+](=O)[O-])c1,inactive: 0.981%
11,CCCCn1nnnc1C(c1ccnc2ccccc12)N1CCC(n2c(=O)[nH]c3ccccc32)CC1 (stereo not drawn),inactive: -0.129%
12,CC(C)c1ccc(NC2CCN(C(=O)OC(C)(C)C)CC2)cc1,inactive: -0.633%
13,CCCCn1nnnc1C(c1ccccc1OC(F)(F)F)N1CCC(n2c(=O)[nH]c3ccccc32)CC1 (stereo not drawn),inactive: -0.716%
14,COc1ccc(CN(CCCl)CCCl)cc1Cl,inactive: -3.56%
15,O=[N+]([O-])c1cc([N+](=O)[O-])c(OC2CCCCC2O)c([N+](=O)[O-])c1 (stereo not drawn),inactive: -0.684%
16,CN(C)c1cccc(C(=O)NCC2(N3CCCCC3)CCCCC2)c1,inactive: -1.64%
17,O=[N+]([O-])c1cc([N+](=O)[O-])c(Nc2ccc(Cl)cc2)c([N+](=O)[O-])c1,inactive: -4.05%
18,COc1ccc(C(c2nnnn2C2CCCC2)N2CCC(n3c(=O)[nH]c4ccccc43)CC2)cc1 (stereo not drawn),inactive: -0.365%
19,Cc1ccc(C(=O)NCC2(N(C)C)CCCCC2)o1,inactive: -1.88%
20,CCCOc1ccc(C(=O)NCC2(N(C)C)CCCCC2)cc1OC,inactive: 1.82%
21,O=C(OC1CN2CCC1CC2)c1ccc([N+](=O)[O-])cc1 (stereo not drawn),inactive: -0.411%
22,CN1CCC(Nc2cccc(F)c2)CC1,inactive: 1.53%

row,Structure (SMILES),activation
1,COc1ccc2c(c1O)-c1c(O)c(OC)cc3c1[C@H](C2)[N+](C)(C)CC3.O=[N+]([O-])c1cc([N+](=O)[O-])c([O-])c([N+](=O)[O-])c1[O-],inactive: 1.05%
2,O=C(NCC1(N2CCCCC2)CCCCC1)c1cncc(Br)c1,inactive: -2.98%
3,O=c1[nH]c2ccccc2n1C1CCN(C(c2cccs2)c2nnnn2C2CCCCC2)CC1 (stereo not drawn),inactive: -0.617%
4,COc1ccc(C(=O)NCC2(N3CCOCC3)CCCCC2)cc1OC,inactive: 0.7%
5,O=c1[nH]c2ccccc2n1C1CCN(C(c2ccnc3ccccc23)c2nnnn2C2CCCC2)CC1 (stereo not drawn),inactive: -0.287%
6,CCCCn1nnnc1C(c1ccccc1)N1CCC(n2c(=O)[nH]c3ccccc32)CC1 (stereo not drawn),inactive: 0.577%
7,COc1cc(C(=O)NCC2(N3CCOCC3)CCCCC2)cc(OC)c1C,inactive: 0.773%
8,O=C(NCC1(N2CCOCC2)CCCCC1)c1cc(Br)ccc1Cl,inactive: -0.442%
9,CCc1cc(C(=O)NCC2(N3CCCCC3)CCCCC2)sc1C,inactive: -1.47%
10,O=C(OC1CN2CCC1CC2)C1c2ccccc2C=Cc2ccccc21 (stereo not drawn),inactive: 0.0033%
11,O=C(O)c1cccc(Nc2c([N+](=O)[O-])cc([N+](=O)[O-])cc2[N+](=O)[O-])c1,inactive: 1.07%
12,O=c1[nH]c2ccccc2n1C1CCN(C(c2cccs2)c2nnnn2C2CCCC2)CC1 (stereo not drawn),inactive: 0.88%
13,CCCCn1nnnc1C(c1cccc(OC)c1OC)N1CCC(n2c(=O)[nH]c3ccccc32)CC1 (stereo not drawn),inactive: -0.0174%
14,CCOC(=O)N1CCC(Nc2ccc(C)cc2)CC1,inactive: 0.721%
15,COc1cccc(C(c2nnnn2C(C)(C)C)N2CCC(n3c(=O)[nH]c4ccccc43)CC2)c1OC (stereo not drawn),inactive: 1.18%
16,N/C(=N\O)c1c(N)no[n+]1[O-],inactive: -0.446%
17,CCOC(=O)C(CC)C1=NC(C)(C)Cc2ccccc21.O=[N+]([O-])c1cc([N+](=O)[O-])c(O)c([N+](=O)[O-])c1 (stereo not drawn),inactive: -1.9%
18,N#Cc1ccc(C(=O)NCC2(N3CCCCC3)CCCCC2)cc1,inactive: -0.304%
19,CC(C)(C)OC(=O)N1CCC(N(C(=O)c2ccccc2)c2ccc(Cl)cc2)CC1,inactive: -0.244%
20,CC(C)(C)n1nnnc1C(c1cccc2ccccc12)N1CCC(n2c(=O)[nH]c3ccccc32)CC1 (stereo not drawn),inactive: -0.683%
21,CN(C)C1(CNC(=O)c2cccc(C#N)c2)CCCCC1,inactive: -1.34%
22,c1ccc(CN2CCC(Nc3ccccc3)CC2)cc1,inactive: -0.452%
